This test concerns the target recombinant human AChE (Homo sapiens, UniProt P22303). The format is biochemical. Conditions: read-out: IC50 on AChE inhibition.

Chains of the proteins cited; added tags and fusions are not shown. Residues count along the entry.
UniProt P22303, 32-614: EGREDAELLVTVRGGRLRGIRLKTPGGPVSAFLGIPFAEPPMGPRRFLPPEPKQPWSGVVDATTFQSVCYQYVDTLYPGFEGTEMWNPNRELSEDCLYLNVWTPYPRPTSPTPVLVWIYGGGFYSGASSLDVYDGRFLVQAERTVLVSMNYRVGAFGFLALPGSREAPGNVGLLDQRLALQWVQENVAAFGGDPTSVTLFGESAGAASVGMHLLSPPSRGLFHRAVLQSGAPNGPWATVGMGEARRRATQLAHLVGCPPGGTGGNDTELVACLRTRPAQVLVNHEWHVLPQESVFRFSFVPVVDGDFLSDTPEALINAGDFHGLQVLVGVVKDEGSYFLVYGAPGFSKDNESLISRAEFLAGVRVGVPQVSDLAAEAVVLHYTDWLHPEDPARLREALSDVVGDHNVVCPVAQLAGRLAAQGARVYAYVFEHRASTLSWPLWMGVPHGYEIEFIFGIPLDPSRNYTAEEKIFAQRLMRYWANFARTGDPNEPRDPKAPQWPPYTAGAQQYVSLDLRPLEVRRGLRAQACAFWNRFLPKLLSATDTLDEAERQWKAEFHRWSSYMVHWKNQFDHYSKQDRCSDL

By IC50 is commonly meant the concentration that gives 50% inhibition.

“And” between values parts separate entries of the source, which are not always exact repeats. Equal entries are not always repeated.

In the case of `C=CC[N+](C)(C)c1ccc(CCC(=O)CCc2ccc([N+](C)(C)CC=C)cc2)cc1` [BW284c51], the half-inhibitory concentration (IC50) is 91.5 nM and 113 nM and 112 nM.

Source of the values: PMC6713233 (Toxicology in vitro : an international journal published in …, 2019).
